Reported melting point values for industrial, environmental and drug-like chemicals

Data: OPERA 2.9 data sets, kmansouri/OPERA on GitHub.

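These are experimental values that the OPERA curators gathered from public databases to train and test their QSAR models. The files give a single number for a compound and property, which may rest on several reports. Conditions of the individual experiments are not part of the data. The measured form (salt, isomer or mixture) is not always the one drawn. Some upstream entries may be estimates or bounds without being marked so.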

The melting point is given in degrees Celsius.
The databases behind each value are named after "via".

MP (°C) | structure (SMILES) | via
180 | NNc1ncc(Cl)cc1Cl | OCHEM
50 | CCOc1ccc(O)c(C=O)c1 | OCHEM
176 | CC(C)(C)c1ccc(C(=O)Nc2ccccc2N)cc1 | OCHEM
189 | CC(=O)OCCS(=O)(=O)c1ccc(N2CCC(c3cc(Cl)c(Cl)cc3C)=N2)cc1 | eChemPortal
187 | Cc1nc2ccccc2c(C)c1C(=O)O | OCHEM
88 | O=C(O)CC1CCS(=O)(=O)C1 (centres undefined) | OCHEM
122.5 | O=C(O)c1cc(F)c(F)c(Br)c1F | OCHEM
105 | CCn1cc(C=O)c2ccccc21 | OCHEM
-66.45 | CCCCCCCCCCCCCC[P+](CCCCCC)(CCCCCC)CCCCCC.[Cl-] | eChemPortal
245 | O=C1NC(=O)C2(CCNCC2)N1 | OCHEM
145 | CN(C)C(N)=S | OCHEM
170 | O=C(O)CSc1nnc(-c2ccccc2)o1 | OCHEM
182 | NNC(=S)N1CCOCC1 | OCHEM
88 | O=[N+]([O-])c1cc(S(=O)(=O)Nc2ccccc2)ccc1Cl | OCHEM
201 | O=c1c(Cl)c(Cl)cnn1-c1ccc(Cl)cc1Cl | OCHEM
145 | O=C(O)CCc1nnc(-c2ccccc2)o1 | OCHEM
320 | Nc1c(S(=O)(=O)[O-])cc(Nc2ccc(S(=O)(=O)CCOS(=O)(=O)[O-])cc2)c2c1C(=O)c1ccccc1C2=O.[Na+].[Na+] | eChemPortal
149 | Cc1noc(C(C)C)c1C(=O)O | OCHEM
118 | Cn1ccnc1Sc1ccc(N)cc1 | OCHEM
98 | CC[N+](C)(C)Cc1ccccc1Br.Cc1ccc(S(=O)(=O)[O-])cc1 | OCHEM
162 | CN(C)c1c(N)n(C)c(=O)[nH]c1=O | OCHEM
245 | N=c1sccn1CC(=O)O | OCHEM
247 | O=C(Nc1ccc(O)cc1)c1ccc(Cl)cc1 | OCHEM
106 | NC(=S)Cc1cccc(Cl)c1 | OCHEM
79.5 | CC(C)=CCC[C@]1(C)[C@@H](CC=C(C)C)C[C@]2(CC=C(C)C)C(=O)C(CC=C(C)C)=C(O)[C@@]1(C(=O)C(C)C)C2=O | PubChem
1.62 | COC(=O)C1(C(=O)OC)CC1 | eChemPortal
154 | O=C(O)c1ccc2c(c1)C(=O)N(CC1CCCO1)C2=O (centres undefined) | OCHEM
79 | CC(N)c1ccc(-n2cncn2)cc1 (centres undefined) | OCHEM
158 | Cc1c(CCl)cc(C(=O)O)cc1CCl | OCHEM
172 | O=C(O)Cc1ccc(-n2cccc2)cc1 | OCHEM
100 | CNc1nc2ccccc2o1 | OCHEM
257 | O=C(O)c1cc2cccc(Br)c2o1 | OCHEM
115 | CCc1ccc2c(c1)C(=O)C(=O)N2 | OCHEM